The values below are quoted from earlier work in patent US12491259B2, “Anti-variable MUC1* antibodies and uses thereof” (Minerva Biotechnologies Corporation, priority 2022, dated 2025).

For this series, the system named is HER2+ breast cancers. The following applies: reported; cited from earlier work.

Consider Enhertu, for which the “increase of survival of metastatic breast cancer patients” value is “nearly two years” and the “patients with treatment induced pneumonitis” value was “up to 16%”.
